The chains behind the UniProt entries cited, without tags or fusion partners.
UniProt P31645, whole entry, looked up: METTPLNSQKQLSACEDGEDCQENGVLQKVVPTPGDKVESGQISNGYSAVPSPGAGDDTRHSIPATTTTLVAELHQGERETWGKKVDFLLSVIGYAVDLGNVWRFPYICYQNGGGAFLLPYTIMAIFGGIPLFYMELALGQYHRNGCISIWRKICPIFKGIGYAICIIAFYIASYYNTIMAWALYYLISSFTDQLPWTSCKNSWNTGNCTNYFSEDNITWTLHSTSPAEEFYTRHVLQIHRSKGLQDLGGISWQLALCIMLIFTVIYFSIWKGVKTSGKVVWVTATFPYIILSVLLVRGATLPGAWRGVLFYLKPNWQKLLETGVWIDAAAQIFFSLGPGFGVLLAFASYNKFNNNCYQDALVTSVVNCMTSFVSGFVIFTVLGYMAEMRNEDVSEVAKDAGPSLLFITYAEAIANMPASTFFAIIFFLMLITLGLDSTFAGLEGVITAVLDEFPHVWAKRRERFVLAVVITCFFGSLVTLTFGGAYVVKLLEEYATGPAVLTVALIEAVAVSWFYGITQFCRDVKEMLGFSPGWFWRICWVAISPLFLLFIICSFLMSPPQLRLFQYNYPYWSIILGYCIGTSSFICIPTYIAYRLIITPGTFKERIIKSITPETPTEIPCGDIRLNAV
UniProt Q01959, whole entry: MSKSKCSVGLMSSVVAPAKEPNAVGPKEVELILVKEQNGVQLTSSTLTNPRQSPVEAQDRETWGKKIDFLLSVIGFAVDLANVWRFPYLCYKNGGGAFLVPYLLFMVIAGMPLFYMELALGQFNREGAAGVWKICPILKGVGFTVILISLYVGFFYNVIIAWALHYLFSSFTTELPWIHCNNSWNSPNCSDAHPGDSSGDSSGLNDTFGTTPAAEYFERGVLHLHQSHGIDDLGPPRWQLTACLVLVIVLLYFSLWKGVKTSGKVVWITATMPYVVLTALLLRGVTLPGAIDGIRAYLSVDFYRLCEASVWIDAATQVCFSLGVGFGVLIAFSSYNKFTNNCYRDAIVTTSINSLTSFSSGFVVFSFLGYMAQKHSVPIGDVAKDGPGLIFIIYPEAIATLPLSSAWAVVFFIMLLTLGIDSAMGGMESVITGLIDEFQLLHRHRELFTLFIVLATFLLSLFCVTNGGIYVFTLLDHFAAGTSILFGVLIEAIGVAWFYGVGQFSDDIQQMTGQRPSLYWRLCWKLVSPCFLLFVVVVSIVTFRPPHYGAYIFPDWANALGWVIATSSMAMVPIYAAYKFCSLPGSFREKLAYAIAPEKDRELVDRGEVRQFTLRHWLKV

The first test addresses Sodium-dependent serotonin transporter (Homo sapiens, UniProt P31645). Nature of the test: Ratio of serotonin uptake to serotonin binding.
Consider `CN(C)[C@@H]1C[C@@H](c2ccc(Cl)c(Cl)c2)c2ccccc21` (stereo in doubt; (-)), for which the Ratio came to 36.

For the next test, the target named is Sodium-dependent dopamine transporter (Homo sapiens, UniProt Q01959). Nature of the test: Binding affinity against cloned human dopamine transporter using 40-80 pM [125I]RTI. The essentials: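 Membranes from cells expressing recombinant human transporters: DAT in C6 cells, later HEK293; SERT and NET in HEK293. Cells lysed (2 mM HEPES, 1 mM EDTA), spun at 30000g, resuspended in 0.32 M sucrose, about 15 µg protein. GF/C filtration. Duplicates; IC50 converted to Ki by Cheng-Prusoff.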
Usually Ki stands for a dissociation constant, usually derived from enzyme kinetics or from competition with a known ligand. `CCCN(C)[C@H]1C[C@@H](c2ccc(Cl)c(Cl)c2)c2ccccc21` (relative stereo): the affinity corresponds to a Ki of 1200 nM.

The target in a further test is Sodium-dependent noradrenaline transporter (Homo sapiens, UniProt P23975). Nature of the test: Ratio of norepinephrine uptake to norepinephrine binding.
`CC(C)N(C)[C@H]1C[C@@H](c2ccc(Cl)c(Cl)c2)c2ccccc21`: the Ratio was found to be 2.8.
As for `CC(C)N(C)[C@@H]1C[C@@H](c2ccc(Cl)c(Cl)c2)c2ccccc21`, the Ratio was 1.6.
Still for that read-out and setting: under `Clc1ccc([C@@H]2C[C@@H](NCc3ccccc3)c3ccccc32)cc1Cl` (relative stereo) stands 5.7; under `CN(C)[C@H]1C[C@@H](c2ccc(Cl)c(Cl)c2)c2ccccc21` (relative stereo), 0.57.
With `CN(C)[C@@H]1C[C@@H](c2ccc(Cl)c(Cl)c2)c2ccccc21` (relative stereo), the Ratio is 0.36.
On to `CN(C)[C@@H]1C[C@@H](c2ccc(Cl)c(Cl)c2)c2ccccc21` (stereo in doubt; (+)), for which the Ratio worked out at 0.4.
Same read-out and setting: under `CN(C)[C@@H]1C[C@@H](c2ccc(Cl)c(Cl)c2)c2ccccc21` (stereo in doubt; (-)) stands 1.

For the origin of these results see ChEMBL document CHEMBL1133565 (J Med Chem, 2000).
